What was measured:
[1] = target: CKα1 (Homo sapiens, UniProt P35790); test: Choline kinase assay ([methyl-14C]choline into PCho, purified enzyme); type: biochemical; settings: tested form: bromide; for % Inhibition at 10 µM: purified CKα1, inhibitor 10 µM; for % Inhibition at 10 µM / % Inhibition at 30 µM: end-point assay; for % Inhibition at 30 µM: purified CKα1, inhibitor 30 µM; for IC50: read-out: IC50 CKα, concentration required to inhibit CKα1 enzyme by 50%
[2] = test system: A549; test: Antiproliferative activity, resazurin assay, 72 h; settings: read-out: GI50 A549, tested form: bromide
[3] = test system: MDA-MB-231; test: Antiproliferative activity, resazurin assay, 72 h; settings: read-out: GI50 MDA-MB-231, tested form: bromide
[4] = test system: HL-60; test: Antiproliferative activity, resazurin assay, 72 h; settings: read-out: GI50 HL-60, tested form: bromide
[5] = test system: HT29; test: Antiproliferative activity, resazurin assay, 72 h; settings: read-out: GI50 HT29, tested form: bromide
[6] = test system: Jurkat; test: Antiproliferative activity, resazurin assay, 72 h; settings: read-out: GI50 Jurkat, tested form: bromide
[7] = test system: RS 4;11; test: Antiproliferative activity, resazurin assay, 72 h; settings: read-out: GI50 RS 4;11, tested form: bromide
[8] = test system: SEM cells; test: Antiproliferative activity, resazurin assay, 72 h; settings: read-out: GI50 SEM, tested form: bromide
[9] = test system: HeLa; test: Antiproliferative activity, resazurin assay, 72 h; settings: read-out: GI50 HeLa, tested form: bromide
[10] = test system: HepG2 cells; test: Choline uptake assay ([methyl-14C]choline); settings: HepG2, 24 h, tested form: bromide

Protein sequences, listed by entry. Tags and fused reporters are not part of them. Residues count along the entry.
UniProt P35790, 75-457 limits assumed: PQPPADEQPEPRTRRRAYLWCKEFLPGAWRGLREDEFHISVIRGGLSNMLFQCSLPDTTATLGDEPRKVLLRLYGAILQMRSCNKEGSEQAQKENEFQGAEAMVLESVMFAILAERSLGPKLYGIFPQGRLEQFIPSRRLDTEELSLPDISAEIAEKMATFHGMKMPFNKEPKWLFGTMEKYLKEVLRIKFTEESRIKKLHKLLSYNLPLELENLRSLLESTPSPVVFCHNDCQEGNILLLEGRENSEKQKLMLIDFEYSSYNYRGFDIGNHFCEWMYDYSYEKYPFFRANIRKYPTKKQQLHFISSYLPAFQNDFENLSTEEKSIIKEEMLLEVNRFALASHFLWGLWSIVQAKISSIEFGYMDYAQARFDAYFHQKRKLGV

SMILES	% Inhibition at 10 µM [1] [%]	% Inhibition at 30 µM [1] [%]	IC50 [1] [nM]	GI50 [2] [nM]	GI50 [3] [nM]	GI50 [4] [nM]	GI50 [5] [nM]	GI50 [6] [nM]	GI50 [7] [nM]	GI50 [8] [nM]	GI50 [9] [nM]	% Inhibition Choline Uptake at 1 μM ([10]; 1 μM) [%]	% Inhibition Choline Uptake at 10 μM ([10]; 10 μM) [%]
c1ccc(-c2ccc(C[n+]3cnc(N4CCCC4)c4ccsc43)cc2)cc1	34.42	37.94	≥ 50000	–	–	–	–	–	–	–	–	–	–
c1ccc(-c2ccc(C[n+]3ccc(N4CCCC4)c4sccc43)cc2)cc1	30.24	35.06	≥ 50000	3500	810	130	400	2400	560	960	380	–	–
c1ccc(-c2ccc(C[n+]3cnc(N4CCCC4)c4sccc43)cc2)cc1	34.59	31.68	≥ 50000	390	620	150	580	4240	680	1470	410	49.93 ± 1.72	85.12 ± 1.35

Reference: paper PMC9032693, “Biological Evaluation of New Thienopyridinium and Thienopyrimidinium Derivatives as Human Choline Kinase Inhibitors” (Pharmaceutics, 2022)
